Reference: patent US20160033531A1, “METHOD AND COMPOSITIONS FOR DETECTING BINDING TO THE PREGNANE X RECEPTOR” (ST. JUDE CHILDREN'S RESEARCH HOSPITAL, priority 2013, published 2016)
pKi: −log10 of the molar value.

Columns and labels:
[1] = molecular target: T1, GST-PXRLBD (Homo sapiens, UniProt O75469)
T1 sequence (O75469 146-433 limits assumed): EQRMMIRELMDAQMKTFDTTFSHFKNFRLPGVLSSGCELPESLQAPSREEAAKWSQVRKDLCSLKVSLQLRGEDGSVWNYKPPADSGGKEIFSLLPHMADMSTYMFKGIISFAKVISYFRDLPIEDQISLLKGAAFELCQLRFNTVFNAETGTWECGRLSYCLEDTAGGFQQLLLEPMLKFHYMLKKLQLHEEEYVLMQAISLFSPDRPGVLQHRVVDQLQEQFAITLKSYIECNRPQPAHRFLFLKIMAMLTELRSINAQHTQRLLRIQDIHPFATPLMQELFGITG

[2] = molecular target: T1, GST-PXRLBD; test: Optimization of probe concentration for hPXR TR-FRET binding assays; conditions: DMSO, no hPXR protein

Molecule	pKi [1]	Fluorescent emission ratio in the absence of GST-hPXR-LBD ([2]; 100 nM BFLV)	Fluorescent emission ratio in the absence of GST-hPXR-LBD ([2]; 250 nM BFLV)	Fluorescent emission ratio in the absence of GST-hPXR-LBD ([2]; 500 nM BFLV)
Clc1ccccc1C(c1ccccc1)(c1ccccc1)n1ccnc1 [Clotrimazole, clotrimazole]	5.85	–	–	–
7-(3-(((3aR,4R,5S,10bR)-3a-ethyl-9-((3S,5S,7S,9S)-5-ethyl-5-hydroxy-9-(methoxycarbonyl)-2,4,5,6,7,8,9,10-octahydro-1H-3,7-methano[1]azacycloundecino[5,4-b]indol-9-yl)-5-hydroxy-8-methoxy-5-(methoxycarbonyl)-6-methyl-3a,3a^1,4,5,5a,6,11,12-octahydro-1H-indolizino[8,1-cd]carbazol-4-yl)oxy)-3-oxopropyl)-5,5-difluoro-1,3-dimethyl-5H-dipyrrolo[1,2-c:2′,1′-f][1,3,2]diazaborinin-4-ium-5-uide [BFLV]	–	0.019	0.025	0.04
